Experimental data: US12590091B2, “1H-pyrrolo[3,2-C]pyridine and 1H-pyrrolo[2,3-C]pyridine derivatives as TLR9 inhibitors for the treatment of fibrosis” (BRISTOL-MYERS SQUIBB COMPANY, priority 2020, dated 2026)

Chains of the proteins cited; added tags and fusions are not shown. Residues count along the entry.
UniProt Q9NR96, 26-1032 limits assumed: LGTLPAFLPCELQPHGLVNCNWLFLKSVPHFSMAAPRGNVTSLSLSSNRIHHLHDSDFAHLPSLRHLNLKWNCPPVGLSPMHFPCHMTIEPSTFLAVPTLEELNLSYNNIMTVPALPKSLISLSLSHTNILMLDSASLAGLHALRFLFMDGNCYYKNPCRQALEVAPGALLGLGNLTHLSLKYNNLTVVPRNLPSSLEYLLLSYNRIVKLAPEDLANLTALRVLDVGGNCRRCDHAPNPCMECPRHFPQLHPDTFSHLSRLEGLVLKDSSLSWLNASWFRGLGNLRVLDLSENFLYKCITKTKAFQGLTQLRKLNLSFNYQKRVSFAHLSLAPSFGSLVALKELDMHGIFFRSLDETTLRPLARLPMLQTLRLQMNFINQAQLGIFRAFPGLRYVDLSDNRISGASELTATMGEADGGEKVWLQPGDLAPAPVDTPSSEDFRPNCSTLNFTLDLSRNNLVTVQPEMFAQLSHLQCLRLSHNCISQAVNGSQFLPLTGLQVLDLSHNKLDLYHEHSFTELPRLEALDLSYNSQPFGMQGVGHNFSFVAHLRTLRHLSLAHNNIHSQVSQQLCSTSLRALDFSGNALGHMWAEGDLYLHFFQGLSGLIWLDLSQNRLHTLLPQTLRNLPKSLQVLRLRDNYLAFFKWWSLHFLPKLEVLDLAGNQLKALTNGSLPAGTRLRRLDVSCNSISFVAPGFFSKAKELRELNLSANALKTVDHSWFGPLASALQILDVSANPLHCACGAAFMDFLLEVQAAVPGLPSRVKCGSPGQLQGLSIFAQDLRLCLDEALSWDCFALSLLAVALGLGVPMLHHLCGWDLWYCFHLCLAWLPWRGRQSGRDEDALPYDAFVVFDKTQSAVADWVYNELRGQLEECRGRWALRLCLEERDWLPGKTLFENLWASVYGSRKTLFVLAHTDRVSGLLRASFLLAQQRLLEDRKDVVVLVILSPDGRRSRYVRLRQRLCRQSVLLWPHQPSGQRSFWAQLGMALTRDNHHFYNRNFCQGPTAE

Molecular target: human TLR9 (Homo sapiens, UniProt Q9NR96)
Assay: TLR9 inhibition reporter assay (HEK-Blue cells, SEAP reporter)
Format: cell-based
Settings: read-out: TLR9 IC50, HEK-Blue cells overexpressing human TLR9, stimulated with ODN2006 5 nM, 22 hour incubation

SMILES: Cc1nc(-c2cc(F)c(N3CCN(CC(C)C)CC3)cc2F)cc2c1cc(-c1ccc(S(C)(=O)=O)cc1)n2C
- IC50: 7.28 µM
